Yeast mating assay 1: variants of the scFv Ab-14

Antigen: PDVDLGDISGINAS, a 14-residue peptide of the SARS-CoV-2 spike HR2 region.

Ab-14 is the parent antibody, in scFv form: VH, then three GGGGS repeats, then VL. The heavy chain is unchanged in all variants.
VH: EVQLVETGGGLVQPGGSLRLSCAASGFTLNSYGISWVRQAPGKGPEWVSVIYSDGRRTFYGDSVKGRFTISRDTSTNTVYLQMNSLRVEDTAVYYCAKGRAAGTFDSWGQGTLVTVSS
VL: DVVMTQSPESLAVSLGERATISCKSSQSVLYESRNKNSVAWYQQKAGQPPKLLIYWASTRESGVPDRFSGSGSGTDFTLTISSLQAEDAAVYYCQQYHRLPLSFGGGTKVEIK

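Phage display of a naive human antibody library on the peptide gave the parent. Variants in AAYL50 differ from the parent at up to three CDR positions; double and triple changes were sampled at random. The assay is AlphaSeq: two haploid yeast populations carry antibody and antigen on their surface. Binding brings cells together so that they mate, and sequencing counts the barcode pairs among the diploids. Read counts were normalised to the haploid input and turned into Kd by a linear fit to BCL2-family pairs of known affinity, for each replicate. Each pool was mated in three replicate cultures.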

Positions count from residue 1 of the parent VL; N37R puts R in place of N.
All variants listed here change N37 of the VL, counted from its first residue.
Values are apparent Kd, the geometric mean of the replicates that gave a signal; lower means stronger binding.
Where no diploid with the target was found in any replicate, the entry reads "no signal": below detection, most likely a poor binder, though not proof of it.

| changes | Kd | seen in |
|---|---|---|
| N37R+S62C | no signal | 0/3 |
| N37T+S38N+L102S | 160 µM | 1/3 |
| S33Y+N37L+T59A | 470 µM | 1/3 |
| K36V+N37K+V39P | no signal | 0/3 |
| S26A+N37G+W56D | 1.9 nM | 3/3 |
| K24D+N37S | 160 nM | 3/3 |
| N37T+A40W+T59V | 1.0 µM | 1/3 |
| K36E+N37P+Q95P | no signal | 0/3 |
| R34G+N35F+N37K | 38 nM | 3/3 |
| N35R+N37H+Q96Y | 1.2 µM | 3/3 |
| L30W+N37F+S58W | 2.5 µM | 3/3 |
| N37G+S58A+R99N | 25 µM | 2/3 |
| S25D+R34L+N37F | 310 nM | 3/3 |
| S33P+N37W+R99C | 5.5 nM | 3/3 |
| S28R+R34Y+N37K | 150 nM | 3/3 |
| Y31V+N37D+H98S | 8.6 nM | 3/3 |
| Y31V+N37A+L102N | 6.2 nM | 3/3 |
| N35H+N37E | 220 nM | 3/3 |
| N37D+A57D+E61F | 2.1 µM | 1/3 |
| R34P+N37I+Q95D | no signal | 0/3 |
| S28D+K36D+N37R | 40 nM | 3/3 |
| N37Q+S38M+L100N | no signal | 0/3 |
| N35V+N37E+A57I | no signal | 0/3 |
| Y31F+N37S+S38Q | 160 nM | 3/3 |
| N37P | 27 nM | 3/3 |
| S25V+N37P+S62R | 29 nM | 3/3 |
| S28R+N37Q+A40N | no signal | 0/3 |
| S26H+N37R | 950 nM | 2/3 |
| R34F+N35A+N37P | 340 nM | 3/3 |
| N37I+Y97R+L100I | no signal | 0/3 |
| E32P+N37P+T59W | 1.3 µM | 3/3 |
| N37W+L100H+L102S | 12 µM | 2/3 |
| N37I+S38M+P101G | no signal | 0/3 |
| S26Q+Y31F+N37I | 5.0 µM | 2/3 |
| N37E+A57P+S58R | no signal | 0/3 |
| R34T+N37D+W56L | 6.7 nM | 3/3 |
| N37H+W56H+Q95W | 150 µM | 2/3 |
| S28M+N37A+A40D | no signal | 0/3 |
| V29F+N37W | 54 nM | 3/3 |
| S26K+S33H+N37C | 32 µM | 1/3 |
| Q27G+N37F+P101T | no signal | 0/3 |
| N37E+W56N+R99V | 2.0 nM | 3/3 |
| N35I+N37V+P101M | no signal | 0/3 |
| S28K+Y31M+N37K | 44 nM | 3/3 |
| L30Q+N37H+H98G | no signal | 0/3 |
| Q27M+N37L+S38F | 82 µM | 1/3 |
| K24I+N37A+A57Q | 14 µM | 2/3 |
| N37D | 8.2 nM | 3/3 |
| S26M+N37W+T59P | 440 µM | 1/3 |
| S26K+N37V+A40E | no signal | 0/3 |
| N37V+A40M+R60N | 94 µM | 2/3 |

Top 3 of the variants detected in all replicates, tightest first:

| changes | Kd | seen in |
|---|---|---|
| S26A+N37G+W56D | 1.9 nM | 3/3 |
| N37E+W56N+R99V | 2.0 nM | 3/3 |
| S33P+N37W+R99C | 5.5 nM | 3/3 |

Empty control strains, which show no peptide, gave a signal in 18% of pairings with library AAYL50; the median was 15 µM and 95% of these signals were weaker than 970 nM. No background was subtracted.

Data: MIT Lincoln Laboratory AlphaSeq set, Engelhart et al. 2022, doi:10.1038/s41597-022-01779-4, as distributed in FLAb.